The values that follow come from PMC5407101 (Pharmacognosy Magazine, 2017).

In series [1] the test system is UDP-glucuronosyltransferases (UGTs) in rat liver microsomes. Briefly: Inhibition of 4-MU glucuronidation assay in RLM. The series is classed as in vitro ADME. The conditions noted are these: ratio of IC50 RKM/RLM.
Series [2] shares this test system. The conditions noted are these: read-out: reported IC50 value, inhibition of p-NP glucuronidation; RLM; ref Azizi et al. 35; cited from earlier work.

Regarding `O=C(O)Cc1ccccc1Nc1c(Cl)cccc1Cl` [Diclofenac], in series [1], the “fold more potent inhibition of 4-MU glucuronidation with RLM than with RKM” value is 1.6 fold. The IC50 in series [2] is 412 µM.
